Test results: US20100009907A1, “Glucagon-Like Peptides and Uses Thereof” (AMYLIN PHARMACEUTICALS, INC., priority 2006, published 2010)

Target: T1, RINm5f cells expressing endogenous GLP-1, calcitonin, and GIP receptors (Rattus norvegicus, UniProt P32301)
T1 construct: RINm5f cells expressing endogenous GLP-1, calcitonin, and GIP receptors; endogenous in cells; host or cells: RINm5f cells
T1 sequence (P32301 22-463): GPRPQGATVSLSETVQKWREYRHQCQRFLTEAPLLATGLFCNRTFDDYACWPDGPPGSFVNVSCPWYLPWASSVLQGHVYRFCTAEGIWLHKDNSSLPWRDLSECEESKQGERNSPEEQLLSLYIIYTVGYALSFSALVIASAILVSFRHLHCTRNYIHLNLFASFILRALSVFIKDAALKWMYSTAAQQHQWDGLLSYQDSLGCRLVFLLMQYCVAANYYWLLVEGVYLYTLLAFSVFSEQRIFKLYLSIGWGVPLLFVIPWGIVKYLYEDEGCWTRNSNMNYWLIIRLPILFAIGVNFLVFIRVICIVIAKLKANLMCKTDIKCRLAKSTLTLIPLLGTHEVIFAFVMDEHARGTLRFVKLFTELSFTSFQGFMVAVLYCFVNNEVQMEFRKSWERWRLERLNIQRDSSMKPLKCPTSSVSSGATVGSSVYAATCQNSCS
Assay: GLP/GIP/CT cAMP (RIN) assay
Type: cell-based
Description: In addition, receptor binding can be measured using cells prepared from confluent cultures of RINm5f cells expressing endogenous GLP-1, calcitonin, and GIP receptors. Cells, and peptide or buffer solution are combined in 384-well plates. After a 30-minute incubation at room temperature in air, cAMP content is measured as recommended in the Perkin-Elmer AlphaScreen kit instructions.
Cells, and peptide or buffer solutions are combined in 384-well plates and incubated at room temperature in air for 30-minutes. cAMP content can then be measured according to recommendations in the Perkin-Elmer AlphaScreen™ kit instructions using the Perkin Elmer Fusion fluorimeter and data are analyzed using XLfit software (IDBS).

CC[C@H](C)[C@H](NC(=O)[C@H](CC(C)C)NC(=O)[C@H](Cc1c[nH]c2ccccc12)NC(=O)[C@H](CCC(=O)O)NC(=O)[C@@H](NC(=O)[C@H](Cc1ccccc1)NC(=O)[C@H](CCC(=O)O)NC(=O)[C@H](CCCCN)NC(=O)[C@H](C)NC(=O)[C@H](C)NC(=O)[C@H](CCCCN)NC(=O)[C@H](CCC(=O)O)NC(=O)[C@H](CCC(=O)O)NC(=O)[C@H](CC(C)C)NC(=O)[C@H](Cc1ccc(O)cc1)NC(=O)[C@H](CCC(=O)O)NC(=O)[C@@H](NC(=O)[C@@H](NC(=O)[C@H](CC(=O)O)NC(=O)[C@H](CC(N)=O)NC(=O)[C@@H](NC(=O)[C@H](Cc1ccc(O)cc1)NC(=O)[C@@H](NC(=O)[C@H](Cc1ccccc1)NC(=O)[C@H](CCC(=O)O)NC(=O)[C@H](C)NC(=O)[C@@H](N)Cc1c[nH]cn1)[C@@H](C)O)[C@@H](C)O)C(C)C)[C@@H](C)O)[C@@H](C)CC)C(=O)N[C@@H](CCCCN)C(=O)NCC(=O)NCC(=O)N1CCC[C@H]1C(=O)N[C@@H](CO)C(=O)N[C@@H](CO)C(=O)NCC(=O)N[C@@H](C)C(=O)N1CCC[C@H]1C(=O)N1CCC[C@H]1C(=O)N1CCC[C@H]1C(=O)N[C@@H](CO)C(N)=O [compound 19]
GLP/GIP/CT cAMP(RIN) EC50: 0.11 nM
